For the assay, the system named is SK-BR-3 cells. Briefly: SK-BR-3 cell proliferation assay (CellTiter-Glo Luminescent Cell Viability Assay). In kind it is cell-based. The protocol: This cell proliferation assay determines the number of viable cells in culture based on quantitation of the ATP present, an indicator of metabolically active cells (Crouch et al (1993) J. Immunol. Meth. 160:81-88; U.S. Pat. No. 6,602,677). The CellTiter-Glo® Assay was conducted in 96 well format, making it amenable to automated high-throughput screening (HTS) (Cree et al (1995) AntiCancer Drugs 6:398-404). The homogeneous assay procedure involves adding the single reagent (CellTiter-Glo® Reagent) directly to cells cultured in serum-supplemented medium. Cell washing, removal of medium and multiple pipetting steps are not required. The system detects as few as 15 cells/well in a 384-well format in 10 minutes after adding reagent and mixing.
The homogeneous “add-mix-measure” format results in cell lysis and generation of a luminescent signal proportional to the amount of ATP present. The amount of ATP is directly proportional to the number of cells present in culture. […] Viable cells are reflected in relative luminescence units (RLU). The substrate, Beetle Luciferin, is oxidatively decarboxylated by recombinant firefly luciferase with concomitant conversion of ATP to AMP and generation of photons.
(ATP-based viability assays read luminescence as a measure of living cells.)

As to trastuzumab, the “IC50 (ng/ml)” value (SK-BR-3 cell proliferation at 5 days) is given as >10,000 ng/ml. Further, under “up to 10,000 ng/ml concentration tested”, the in vitro activity result is on record as “very little or no activity”.

The record behind these values is patent US20120121615A1, “ALANINYL MAYTANSINOL ANTIBODY CONJUGATES” (priority 2010, published 2012).
